According to patent US20210380535A1, “CO-CRYSTALS COMPRISING EPICATECHIN AND A CARBOXY-N-HETEROCYCLIC CO-CRYSTAL FORMER” (Epirium Bio Inc., priority 2018, published 2021):

Legend:
[1] = Pharmacokinetics study of (+)/(−) epicatechin and their trigonelline (1:1) co-crystals, oral (Example 3); type: in vivo; details: male SD rats, 10 mpk equivalent of parent drug, vehicle CMC and Tween 80, plasma
Procedure: (§1) Co-crystals of the present invention were administered orally (PO) at a dose of 10 mpk equivalent of parent drugs in male SD rats. The PK results of the compound were compared with exposure of parent drugs. […] Blood samples were centrifuged at 10,000 rpm for 5 min. at 4° C. to obtain the plasma, which were aspirated into separate labelled tubes and stored at −80° C. Extraction solvent was added to plasma, was vortexed and shaken on shaker for 10 minutes, centrifuged at 10,000 rpm for 10 minutes at 4° C. Supernatant was kept for analysis.

[2] = Pharmacokinetics study of (+) epicatechin (SPR590) and its trigonelline (1:1) co-crystal (SPR515), oral (Example 4); type: in vivo; details: male SD rats, CMC and Tween 80; for Plasma level: PO 10 mpk (SPR515: equivalent to 6.25 mpk epicatechin)
Procedure: as §1, with “mpk” for “mpk equivalent of parent drugs”, “rats for the control (+) epicatechin group and 10 mpk of SPR 515 which is equivalent to 6.25 mpk of epicatechin.” for “rats.”

[3] = PO, dose 10 mpk (MW adjusted (+)-epicatechin dose: SPR590 10 mpk, SPR515 6.25 mpk)

(−) Epicatechin_Trigonelline (1:1) Co-Crystals [Compound 101]
AUC [1]: 0.7566 µM·h | Cmax [1]: 435 nM | Tmax [1]: 66 min | T½ elimination [1]: 27 min

(+) Epicatechin_Trigonelline (1:1) Co-Crystals [Compound 104]
AUC [1]: 0.7456 µM·h | Cmax [1]: 455 nM | Tmax [1]: 48 min | T½ elimination [1]: 40.8 min | AUC [2, 3]: 1.8212 µM·h | Cmax [2, 3]: 801 nM | Plasma level ([2]; time point 0.16 h): 432.4 nM | Plasma level ([2]; time point 0.5 h): 620.5 nM | Plasma level ([2]; time point 1 h): 764.0 nM | Plasma level ([2]; time point 2 h): 418.9 nM | Plasma level ([2]; time point 4 h): 95.3 nM | Plasma level ([2]; time point 8 h): 0.0 nM
